# Source: article PMC3492761 (Journal of medicinal chemistry, 2012)
# Assays:
# [1] = tested on: influenza A/CA/04/2009 (H1N1) virus; details: mouse, in vivo, po; for protection of infected mice: 0.1 mg/kg/day
# [2] = tested on: A/WSN/33 (H1N1) influenza virus; details: mouse, in vivo, po; for survival and body weight of infected mice: 10 mg/kg/day; for protection of infected mice: 0.1 mg/kg/day
SMILES,protection of infected mice [1],body weight recovery ([1]; 1 mg/kg),body weight recovery ([1]; 10 mg/kg),survival and body weight of infected mice [2],protection of infected mice [2],protection activity in mice survival ([2]; 1 mg/kg/day)
"CCC(CC)O[C@@H]1C=C(P(=O)(O)O)C[C@H](NC(=N)N)[C@H]1NC(C)=O [4a, guanidino-tamiphosphor]",no significant protection,not observed,slow and slight,the mice survived,,
"CCC(CC)O[C@@H]1C=C(P(=O)(O)O)C[C@H](N)[C@H]1NC(C)=O [3a, tamiphosphor]",,,,the mice survived,,
CCOP(=O)(O)C1=C[C@@H](OC(CC)CC)[C@H](NC(C)=O)[C@@H](NC(=N)N)C1,no significant protection,not observed,slow and slight,the mice survived,partial protection,better protection activity in mice survival than other compounds
CCOP(=O)(O)C1=C[C@@H](OC(CC)CC)[C@H](NC(C)=O)[C@@H](N)C1,,,,the mice survived,partial protection,

# Read-outs that look alike come from different tables or passages of the source.
